B1: MINA53 (Homo sapiens) (protein)
chain: MPKKAKPTGSGKEEGPAPCKQMKLEAAGGPSALNFDSPSSLFESLISPIKTETFFKEFWEQKPLLIQRDDPALATYYGSLFKLTDLKSLCSRGMYYGRDVNVCRCVNGKKKVLNKDGKAHFLQLRKDFDQKRATIQFHQPQRFKDELWRIQEKLECYFGSLVGSNVYITPAGSQGLPPHYDDVEVFILQLEGEKHWRLYHPTVPLAREYSVEAEERIGRPVHEFMLKPGDLLYFPRGTIHQADTPAGLAHSTHVTISTYQNNSWGDFLLDTISGLVFDTAKEDVELRTGIPRQLLLQVESTTVATRRLSGFLRTLADRLEGTKELLSSDMKKDFIMHRLPPYSAGDGAELSTPGGKLPRLDSVVRLQFKDHIVLTVLPDQDQSDEAQEKMVYIYHSLKNSRETHMMGNEEETEFHGLRFPLSHLDALKQIWNSPAISVKDLKLTTDEEKESLVLSLWTECLIQVV
B2: NO66 (Homo sapiens) (protein)
chain: MDGLQASAGPLRRGRPKRRRKPQPHSGSVLALPLRSRKIRKQLRSVVSRMAALRTQTLPSENSEESRVESTADDLGDALPGGAAVAAVPDAARREPYGHLGPAELLEASPAARSLQTPSARLVPASAPPARLVEVPAAPVRVVETSALLCTAQHLAAVQSSGAPATASGPQVDNTGGEPAWDSPLRRVLAELNRIPSSRRRAARLFEWLIAPMPPDHFYRRLWEREAVLVRRQDHTYYQGLFSTADLDSMLRNEEVQFGQHLDAARYINGRRETLNPPGRALPAAAWSLYQAGCSLRLLCPQAFSTTVWQFLAVLQEQFGSMAGSNVYLTPPNSQGFAPHYDDIEAFVLQLEGRKLWRVYRPRVPTEELALTSSPNFSQDDLGEPVLQTVLEPGDLLYFPRGFIHQAECQDGVHSLHLTLSTYQRNTWGDFLEAILPLAVQAAMEENVEFRRGLPRDFMDYMGAQHSDSKDPRRTAFMEKVRVLVARLGHFAPVDAVADQRAKDFIHDSLPPVLTDRERALSVYGLPIRWEAGEPVNVGAQLTTETEVHMLQDGIARLVGEGGHLFLYYTVENSRVYHLEEPKCLEIYPQQADAMELLLGSYPEFVRVGDLPCDSVEDQLSLATTLYDKGLLLTKMPLALN

Substrate: O=C(O)CCC(=O)C(=O)O
Assay: purified protein, by the assay type
Settings: other: 2OG, n = 4, n = 3, means ± 95% confidence
[1] = Fe(II): MINA53 (Met26-Val464), peptide: MINA53 (Met1-Val464)
[2] = Fe(II): NO66 (Ser183-Asn641), peptide: NO66 (Gln116-Asn641)

Protein	Km [1]	Vmax [1]	Km [2]	Vmax [2]
B1	3.2 ± 0.6 µM	0.32 ± 0.03 µM/min		
B2			0.83 ± 0.09 µM	0.021 ± 0.001 µM/min
